Reference: BindingDB's records for doi:10.1073/pnas.92.8.3298 (Agouron Pharmaceuticals, 1995)

Biological target: T1, Dimer of Gag-Pol polyprotein [489-587] (Human immunodeficiency virus 1, UniProt P12497)
T1 construct: 489-587
Assay: Protease Inhibition Assay
Details: pH 5.6; 37 °C
Description: Protease activity was measured by continuous chromogenic assay. The chromogenic peptide His-Lys-Ala-Arg-Val-Leu- (p-NO2-Phe)-Glu-Ala-Nleu-Ser (Bachem) was used as a substrate. Reactions were followed by the decrease of absorbance at 300 nm measured by spectrophotometer. Experimental results were analyzed by the nonlinear regression analysis, using a mathematical model for tight binding inhibitors.

`CC(C)(C)N(CCO)C(=O)c1ccccc1CCC(O)Cc1ccccc1C(=O)N(CCO)C(C)(C)C` (stereo unspecified) [N-tert-butyl-2-(4-{2-[tert-butyl(2-hydroxyethyl)carbamoyl]phenyl}-3-hydroxybutyl)-N-(2-hydroxyethyl)benzamide] was tested. Which Ki did it give?
The Ki was 1100 nM.
